The values below are quoted from earlier work in US10906890B2, “Triazole phenyl compounds as agonists of the APJ receptor” (AMGEN INC., priority 2016, dated 2021).

For this series the following is noted: in vivo; cited from earlier work.

On to Apelin-13, for which the plasma half-life was < 5 min.
